Our source for the IC50 values is patent US9725465B2, “Biaryl acetamide compounds and methods of use thereof” (Ambit Biosciences Corporation, priority 2013, dated 2017).

Structures are written as SMILES.

As a reminder, the IC50 is the concentration that inhibits the measured activity by half.

The target of one assay is FLT3-ITD-F691L (Homo sapiens (Human), UniProt P36888, F691L/INS600HVDFREYEYD). The assay is described as follows: pFLT3 MSD assay, Ba/F3 FLT3-ITD-F691L. It counts as cell-based. To be noted: Ba/F3 FLT3-ITD-F691L cells, 2 hours, read-out: BaF3-FLT3-ITD-F691L pFlt3 IC50.
A further assay addresses FLT3-ITD-D835V (Homo sapiens (Human), UniProt P36888, D835V/INS600HVDFREYEYD). The assay is described as follows: pFLT3 MSD assay, Ba/F3 FLT3-ITD-D835V. It counts as cell-based. To be noted: Ba/F3 FLT3-ITD-D835V cells, 2 hours, read-out: BaF3-FLT3-ITD-D835V pFlt3 IC50.

Turning to `CS(=O)(=O)CCNC(=O)c1cc2cc(-c3ccc(CC(=O)Nc4cc(C5(C(F)(F)F)CC5)on4)c(F)c3)cnc2[nH]1` [Example 107, 5-[3-fluoro-4-[2-oxo-2-[[5-[1-(trifluoromethyl)cyclo-propyl]isoxazol-3-yl]amino]ethyl]phenyl]-N-(2-methylsulfonylethyl)-1H-pyrrolo[2,3-b]pyridine-2-carboxamide], the 50% inhibitory concentration (IC50) at FLT3-ITD-F691L and at FLT3-ITD-D835V was less than 10 nM throughout.

For `CN(C)CCNC(=O)c1cc2cc(-c3ccc(CC(=O)Nc4cc(C5(C(F)(F)F)CC5)on4)c(F)c3)cnc2[nH]1` [Example 108, N-[2-(dimethylamino)ethyl]-5-[3-fluoro-4-[2-oxo-2-[[5-[1-(trifluoromethyl)cyclo-propyl]isoxazol-3-yl]amino]ethyl]phenyl]-1H-pyrrolo[2,3-b]pyridine-2-carboxamide], the 50% inhibitory concentration (IC50) at FLT3-ITD-F691L and at FLT3-ITD-D835V was less than 10 nM each time.

As to `Cn1cc(-c2n[nH]c3ncc(-c4ccc(CC(=O)Nc5cc(C(C)(C)C)on5)cc4)cc23)cn1` [Example 109, N-(5-tert-butylisoxazol-3-yl)-2-[4-[3-(1-methylpyrazol-4-yl)-1H-pyrazolo[3,4-b]pyridin-5-yl]phenyl]acetamide], the IC50 at FLT3-ITD-F691L and on FLT3-ITD-D835V was less than 10 nM throughout.

Take `CN(C)C1CCN(C(=O)c2cc3cc(-c4ccc(CC(=O)Nc5cc(C6(C(F)(F)F)CC6)on5)c(F)c4)cnc3[nH]2)C1` (stereo not drawn) [Example 110, 2-[4-[2-[3-(dimethylamino)pyrrolidine-1-carbonyl]-1H-pyrrolo[2,3-b]pyridin-5-yl]-2-fluoro-phenyl]-N-[5-[1-(trifluoro-methyl)cyclopropyl]isoxazol-3-yl]acetamide]: the IC50 on FLT3-ITD-F691L and at FLT3-ITD-D835V was less than 10 nM throughout.

As to `CC(C)(c1cc(NC(=O)Cc2ccc(-c3cnc4[nH]nc(OCCOC(F)(F)F)c4c3)cc2F)no1)C(F)(F)F` [Example 114, 2-[2-fluoro-4-[3-[2-(trifluoromethoxy)ethoxy]-1H-pyrazolo[3,4-b]pyridin-5-yl]phenyl]-N-[5-(2,2,2-trifluoro-1,1-dimethyl-ethyl)isoxazol-3-yl]acetamide], the IC50 at FLT3-ITD-F691L and at FLT3-ITD-D835V was less than 10 nM throughout.

For `COc1cc2ncc(-c3ccc(CC(=O)Nc4cc(C(C)(C)C(F)(F)F)on4)c(F)c3)cc2c(OC)c1OC` [Example 115, 2-[2-fluoro-4-(5,6,7-trimethoxy-3-quinolyl)phenyl]-N-[5-(2,2,2-trifluoro-1,1-dimethyl-ethyl)isoxazol-3-yl]acetamide], the IC50 at FLT3-ITD-F691L is less than 10 nM; at FLT3-ITD-D835V it was 10 to 20 nM.

With `COc1cc2ncc(-c3ccc(CC(=O)Nc4cc(C(C)(C)C)on4)cc3)cc2c(OC)c1OC` [Example 116, N-(5-tert-butylisoxazol-3-yl)-2-[4-(5,6,7-trimethoxy-3-quinolyl)phenyl]acetamide], the results for the IC50 at FLT3-ITD-F691L and on FLT3-ITD-D835V were 10 to 20 nM and 20 to 50 nM, respectively.

On to `CN(C)NC(=O)c1cc2cc(-c3ccc(CC(=O)Nc4cc(C5(C(F)(F)F)CC5)on4)c(F)c3)cnc2[nH]1` [Example 117, 2-[4-[2-(dimethylaminocarbamoyl)-1H-pyrrolo[2,3-b]pyridin-5-yl]-2-fluoro-phenyl]-N-[5-[1-(trifluoro-methyl)cyclopropyl]isoxazol-3-yl]acetamide], for which the IC50 on FLT3-ITD-F691L and at FLT3-ITD-D835V was less than 10 nM throughout.

On to `CCOc1cc2ncc(-c3ccc(CC(=O)Nc4cc(C5(C(F)(F)F)CC5)on4)c(F)c3)nc2cc1OCC` [Example 118, 2-[4-(6,7-diethoxyquinoxalin-2-yl)-2-fluoro-phenyl]-N-[5-[1-(trifluoromethyl)cyclo-propyl]isoxazol-3-yl]acetamide], for which the IC50 at FLT3-ITD-F691L and at FLT3-ITD-D835V was less than 10 nM throughout.

Turning to `O=C(Cc1ccc(-c2cnc3cc4c(cc3n2)OCO4)cc1F)Nc1cc(C2(C(F)(F)F)CC2)on1` [Example 119, 2-[4-([1,3]dioxolo[4,5-g]quinoxalin-6-yl)-2-fluoro-phenyl]-N-[5-[1-(trifluoro-methyl)cyclopropyl]isoxazol-3-yl]acetamide], the figures for the IC50 on FLT3-ITD-F691L and on FLT3-ITD-D835V were less than 10 nM and 10 to 20 nM, respectively.

As to `COCCOc1cc2ncc(-c3ccc(CC(=O)Nc4cc(C(C)(C)C)on4)cc3)nc2cc1OCCOC` [Example 120, 2-[4-[6,7-bis(2-methoxyethoxy)quinoxalin-2-yl]phenyl]-N-(5-tert-butylisoxazol-3-yl)acetamide], the half-inhibitory concentration (IC50) at FLT3-ITD-F691L and on FLT3-ITD-D835V was less than 10 nM in each case.

Regarding `O=C(Cc1ccc(-c2cnc3cc4c(cc3n2)OC[C@@H](CO)O4)cc1F)Nc1cc(C2(C(F)(F)F)CC2)on1` [Example 121, 2-[2-fluoro-4-[(2R)-2-(hydroxymethyl)-2,3-dihydro-[1,4]dioxino[2,3-g]quinoxalin-7-yl]phenyl]-N-[5-[1-(trifluoro-methyl)cyclopropyl]isoxazol-3-yl]acetamide], the IC50 at FLT3-ITD-F691L and on FLT3-ITD-D835V was less than 10 nM each time.

For the molecule `O=C(Cc1ccc(-c2cnc3cc4c(cc3n2)O[C@H](CO)CO4)cc1F)Nc1cc(C2(C(F)(F)F)CC2)on1` [Example 122, 2-[2-fluoro-4-[(3R)-3-(hydroxymethyl)-2,3-dihydro-[1,4]dioxino[2,3-g]quinoxalin-7-yl]phenyl]-N-[5-[1-(trifluoro-methyl)cyclopropyl]isoxazol-3-yl]acetamide], the IC50 on FLT3-ITD-F691L and at FLT3-ITD-D835V was less than 10 nM each time.

As for `COc1cc2nc(N)c(-c3ccc(CC(=O)Nc4cc(C5(C(F)(F)F)CC5)on4)c(F)c3)nc2cc1OC` [Example 123, 2-[4-(3-amino-6,7-dimethoxy-quinoxalin-2-yl)-2-fluoro-phenyl]-N-[5-[1-(trifluoro-methyl)cyclopropyl]isoxazol-3-yl]acetamide], the IC50 at FLT3-ITD-F691L and at FLT3-ITD-D835V was less than 10 nM each time.

`COc1cc2nc(OC)c(-c3ccc(CC(=O)Nc4cc(C5(C(F)(F)F)CC5)on4)c(F)c3)nc2cc1OC` [Example 124, 2-[2-fluoro-4-(3,6,7-trimethoxyquinoxalin-2-yl)phenyl]-N-[5-[1-(trifluoro-methyl)cyclopropyl]isoxazol-3-yl]acetamide]: the half-maximal inhibitory concentration (IC50) on FLT3-ITD-F691L and on FLT3-ITD-D835V was more than 50 nM each time.

With `CCOC(=O)c1nc2cc(OC)c(OC)cc2nc1-c1ccc(CC(=O)Nc2cc(C3(C(F)(F)F)CC3)on2)c(F)c1` [Example 132, ethyl 3-[3-fluoro-4-[2-oxo-2-[[5-[1-(trifluoro-methyl)cyclopropyl]isoxazol-3-yl]amino]ethyl]phenyl]-6,7-dimethoxy-quinoxaline-2-carboxylate], the half-maximal inhibitory concentration (IC50) on FLT3-ITD-F691L and at FLT3-ITD-D835V was more than 50 nM in each case.

Turning to `COc1cc2nc(C(=O)O)c(-c3ccc(CC(=O)Nc4cc(C5(C(F)(F)F)CC5)on4)c(F)c3)nc2cc1OC` [Example 133, 3-[3-fluoro-4-[2-oxo-2-[[5-[1-(trifluoro-methyl)cyclopropyl]isoxazol-3-yl]amino]ethyl]phenyl]-6,7-dimethoxy-quinoxaline-2-carboxylic acid], the concentration for half-maximal inhibition (IC50) on FLT3-ITD-F691L and at FLT3-ITD-D835V was more than 50 nM in each case.

For the molecule `COc1cc2nc(C(N)=O)c(-c3ccc(CC(=O)Nc4cc(C5(C(F)(F)F)CC5)on4)c(F)c3)nc2cc1OC` [Example 135, 3-[3-fluoro-4-[2-oxo-2-[[5-[1-(trifluoro-methyl)cyclopropyl]isoxazol-3-yl]amino]ethyl]phenyl]-6,7-dimethoxy-quinoxaline-2-carboxamide], the IC50 at FLT3-ITD-F691L and on FLT3-ITD-D835V was more than 50 nM each time.

In the case of `COc1cc2nc(-c3ccc(CC(=O)Nc4cc(C5(C(F)(F)F)CC5)on4)c(F)c3)cnc2cc1OCCOC(=O)N(C)C` [Example 136, 2-[2-[3-fluoro-4-[2-oxo-2-[[5-[1-(trifluoro-methyl)cyclopropyl]isoxazol-3-yl]amino]ethyl]phenyl]-7-methoxy-quinoxalin-6-yl]oxyethyl N,N-dimethylcarbamate], the IC50 at FLT3-ITD-F691L and on FLT3-ITD-D835V was less than 10 nM each time.

Regarding `COc1cc2nc(CO)c(-c3ccc(CC(=O)Nc4cc(C5(C(F)(F)F)CC5)on4)c(F)c3)nc2cc1OC` [Example 137, 2-[2-fluoro-4-[3-(hydroxymethyl)-6,7-dimethoxy-quinoxalin-2-yl]phenyl]-N-[5-[1-(trifluoro-methyl)cyclopropyl]isoxazol-3-yl]acetamide], the half-inhibitory concentration (IC50) at FLT3-ITD-F691L is 20 to 50 nM; at FLT3-ITD-D835V, more than 50 nM.

Turning to `COc1cc2ncc(-c3ccc(CC(=O)Nc4cc(C(C)(C)C(F)(F)F)on4)c(F)c3)c(Cl)c2cc1OC` [Example 138, 2-[4-(4-chloro-6,7-dimethoxy-3-quinolyl)-2-fluoro-phenyl]-N-[5-(2,2,2-trifluoro-1,1-dimethyl-ethyl)isoxazol-3-yl]acetamide], the values for the half-inhibitory concentration (IC50) on FLT3-ITD-F691L and at FLT3-ITD-D835V were 20 to 50 nM and more than 50 nM, respectively.

In the case of `COc1cc2ncc(-c3ccc(CC(=O)Nc4cc(C(C)(C)C)nn4C)c(F)c3)nc2cc1OC` [Example 139, N-(5-tert-butyl-2-methyl-pyrazol-3-yl)-2-[4-(6,7-dimethoxyquinoxalin-2-yl)-2-fluoro-phenyl]acetamide], the IC50 on FLT3-ITD-F691L and at FLT3-ITD-D835V was less than 10 nM in each case.

As for `COc1cc2ncc(-c3ccc(CC(=O)Nc4cc(C(C)(C)C)nn4-c4ccccc4)c(F)c3)nc2cc1OC` [Example 140, N-(5-tert-butyl-2-phenyl-pyrazol-3-yl)-2-[4-(6,7-dimethoxyquinoxalin-2-yl)-2-fluoro-phenyl]acetamide], the half-maximal inhibitory concentration (IC50) on FLT3-ITD-F691L and at FLT3-ITD-D835V was less than 10 nM each time.

As to `COc1cc2ncc(-c3ccc(CC(=O)Nc4cc(C(C)(C)C(F)(F)F)on4)c(F)c3)c(N=[N+]=[N-])c2cc1OC` [Example 141, 2-[4-(4-azido-6,7-dimethoxy-3-quinolyl)-2-fluoro-phenyl]-N-[5-(2,2,2-trifluoro-1,1-dimethyl-ethyl)isoxazol-3-yl]acetamide], the 50% inhibitory concentration (IC50) on FLT3-ITD-F691L and on FLT3-ITD-D835V was 20 to 50 nM throughout.
